Reference: PubChem BioAssay (NCATS)
Values joined by “and” are separate entries in the source; they are usually repeats but may differ in a detail not shown here. Equal values may be shown once. The entries are a selection whose mix differs from that of the whole data set. Records with an inconclusive call do not appear. For some assays here: Potency and affinity values are given separately. Active and inactive are the calls of the source. Unless noted, the call rests on the fitted dose curve.

Chains of the proteins cited; added tags and fusions are not shown. Residues count along the entry.
UniProt Q12809, 1-548 isoform 6: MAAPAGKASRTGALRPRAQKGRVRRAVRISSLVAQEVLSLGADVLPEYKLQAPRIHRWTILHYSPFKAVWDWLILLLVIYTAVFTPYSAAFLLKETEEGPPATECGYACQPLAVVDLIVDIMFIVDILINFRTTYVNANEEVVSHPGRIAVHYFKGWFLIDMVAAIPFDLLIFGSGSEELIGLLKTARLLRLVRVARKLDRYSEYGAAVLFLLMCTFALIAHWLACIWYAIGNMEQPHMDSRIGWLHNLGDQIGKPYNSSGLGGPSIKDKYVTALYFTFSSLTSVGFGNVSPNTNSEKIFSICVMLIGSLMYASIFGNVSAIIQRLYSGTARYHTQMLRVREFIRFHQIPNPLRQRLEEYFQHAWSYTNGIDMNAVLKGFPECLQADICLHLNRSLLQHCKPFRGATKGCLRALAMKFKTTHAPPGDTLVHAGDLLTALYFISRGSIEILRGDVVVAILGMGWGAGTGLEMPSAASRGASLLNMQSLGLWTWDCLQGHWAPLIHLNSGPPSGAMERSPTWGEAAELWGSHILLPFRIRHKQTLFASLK
UniProt P10828, whole entry: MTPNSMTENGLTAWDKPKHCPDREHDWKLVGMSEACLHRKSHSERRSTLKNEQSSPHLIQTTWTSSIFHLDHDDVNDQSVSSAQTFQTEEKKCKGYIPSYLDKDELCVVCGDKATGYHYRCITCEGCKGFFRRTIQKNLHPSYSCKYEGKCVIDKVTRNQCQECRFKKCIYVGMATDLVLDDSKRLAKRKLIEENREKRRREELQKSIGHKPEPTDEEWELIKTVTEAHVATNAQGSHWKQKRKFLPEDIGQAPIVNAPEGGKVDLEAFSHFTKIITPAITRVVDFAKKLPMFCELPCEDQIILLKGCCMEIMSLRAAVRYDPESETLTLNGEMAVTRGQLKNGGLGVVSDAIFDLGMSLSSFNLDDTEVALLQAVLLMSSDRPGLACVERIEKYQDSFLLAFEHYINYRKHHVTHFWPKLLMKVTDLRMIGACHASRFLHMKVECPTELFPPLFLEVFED
UniProt P10275, whole entry: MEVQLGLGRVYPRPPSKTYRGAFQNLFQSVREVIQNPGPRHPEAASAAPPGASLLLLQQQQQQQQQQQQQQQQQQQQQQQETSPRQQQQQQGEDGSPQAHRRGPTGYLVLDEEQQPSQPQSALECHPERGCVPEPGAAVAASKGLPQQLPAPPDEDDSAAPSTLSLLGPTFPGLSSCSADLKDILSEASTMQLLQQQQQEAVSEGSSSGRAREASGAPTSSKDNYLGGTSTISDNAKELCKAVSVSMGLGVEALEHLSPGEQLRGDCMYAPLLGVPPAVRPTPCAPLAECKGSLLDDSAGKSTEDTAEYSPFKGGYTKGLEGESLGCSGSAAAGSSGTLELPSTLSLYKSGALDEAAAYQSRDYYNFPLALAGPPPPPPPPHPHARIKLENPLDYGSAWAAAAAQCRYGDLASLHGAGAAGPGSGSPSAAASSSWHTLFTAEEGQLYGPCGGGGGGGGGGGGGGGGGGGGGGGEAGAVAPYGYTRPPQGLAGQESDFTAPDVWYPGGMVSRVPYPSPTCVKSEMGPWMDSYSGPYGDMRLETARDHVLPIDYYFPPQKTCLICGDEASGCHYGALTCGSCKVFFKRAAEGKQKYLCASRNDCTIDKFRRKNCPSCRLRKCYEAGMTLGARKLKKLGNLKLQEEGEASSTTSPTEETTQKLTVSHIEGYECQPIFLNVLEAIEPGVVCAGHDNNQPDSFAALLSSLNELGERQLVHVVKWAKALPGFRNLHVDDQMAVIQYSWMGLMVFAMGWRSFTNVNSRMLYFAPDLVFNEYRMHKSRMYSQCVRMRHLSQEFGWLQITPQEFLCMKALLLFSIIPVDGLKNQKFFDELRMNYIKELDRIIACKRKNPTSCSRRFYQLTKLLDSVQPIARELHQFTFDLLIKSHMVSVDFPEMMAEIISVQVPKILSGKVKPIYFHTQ
UniProt Q03181, whole entry: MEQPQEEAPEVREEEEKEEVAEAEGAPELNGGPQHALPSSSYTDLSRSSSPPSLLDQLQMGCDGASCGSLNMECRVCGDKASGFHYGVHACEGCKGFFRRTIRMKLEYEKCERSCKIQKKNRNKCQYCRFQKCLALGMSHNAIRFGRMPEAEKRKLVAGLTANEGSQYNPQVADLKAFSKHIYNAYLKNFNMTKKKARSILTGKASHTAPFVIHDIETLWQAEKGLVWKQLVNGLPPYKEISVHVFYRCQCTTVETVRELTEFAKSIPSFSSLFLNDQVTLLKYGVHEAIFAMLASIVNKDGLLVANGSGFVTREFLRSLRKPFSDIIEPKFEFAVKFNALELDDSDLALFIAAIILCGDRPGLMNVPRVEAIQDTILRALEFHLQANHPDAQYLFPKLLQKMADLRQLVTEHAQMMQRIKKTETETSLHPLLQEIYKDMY

What was measured:
[1] = qHTS for Inhibitors of ATXN expression: Validation of Cytotoxic Assay (AID 588349; active means well fitted curve in the direction sought with a large enough effect; an effect the other way counts as inactive or inconclusive; further: on the % scale 0 is the no-effect control and ±100 the full control effect); settings: cytotoxicity counter-screen for ATXN expression inhibitors, cell viability; at 57.1 µM (top of the series)
Outline: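 HEK293 cells treated with titrated compound for 72 hr at 37 degrees C; viability read as intracellular ATP by CellTiter Glo luminescence.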

[2] = qHTS for Inhibitors of ATXN expression: Validation (AID 588378; active means well fitted curve in the direction sought with a large enough effect; an effect the other way counts as inactive or inconclusive; further: on the % scale 0 is the no-effect control and ±100 the full control effect; nearly all actives have a fitted effect of over 75% in size); settings: cell-based ATXN2 expression reporter assay, luminescence; at 57.1 µM (top of the series)
Outline: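 HEK293 cells carrying ATXN2-firefly luciferase reporter, treated with compound 24 h at 37 °C. Viability read first by CellTiter-Fluor (405/525 nm), then reporter expression by Bright-Glo luminescence; controls were a known ATXN2 expression inhibitor and a luciferase inhibitor.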

[3] = biological target: Voltage-gated inwardly rectifying potassium channel KCNH2 (Homo sapiens) (UniProt Q12809); experiment: qHTS Assay for Small Molecule Inhibitors of the Human hERG Channel Activity (AID 588834; active means well fitted curve in the direction sought with a large enough effect; an effect the other way counts as inactive or inconclusive;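 further: U2OS cells transduced with hERG by BacMam; top concentration of the series differs between compounds; on the % scale 0 is the no-effect control and ±100 the full control effect; lower thallium flux fluorescence means stronger hERG block; nearly all actives have a fitted effect of over 50% in size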); settings: U2OS BacMam hERG, FluxOR thallium flux fluorescence
[4] = biological target: Bile acid receptor (Homo sapiens) (UniProt Q96RI1); experiment: qHTS assay for small molecule antagonists of farnesoid X receptor signaling (AID 588526); settings: HEK293T FXR-UAS-bla, beta-lactamase ratio, antagonist mode; at 76.7 µM (top of the series); further: on the % scale 0 is the no-effect control and ±100 the full control effect
[5] = biological target: Bile acid receptor (Homo sapiens) (UniProt Q96RI1); experiment: qHTS assay for small molecule agonists of farnesoid X receptor signaling (AID 588527); settings: HEK293T FXR-UAS-bla, beta-lactamase ratio, 16 h; active compounds read high;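 further: 0% = vehicle basal and 100% = reference agonist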
[6] = biological target: Glucocorticoid receptor (Homo sapiens) (UniProt P04150); experiment: qHTS assay for small molecule agonists of glucocorticoid receptor signaling (AID 588532; active means well fitted curve in the direction sought with a large enough effect in the signal ratio, with a control signal flat; the % refers to the signal ratio;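 further: 100% = dexamethasone at 0.1 µM and 0% = DMSO only wells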); settings: HeLa MMTV-bla, beta-lactamase ratio, agonist, 18 h; active compounds read high
[7] = biological target: Glucocorticoid receptor (Homo sapiens) (UniProt P04150); experiment: qHTS assay for small molecule antagonists of glucocorticoid receptor signaling (AID 588533; active means well fitted inhibition curve with a large enough effect in the signal ratio, with a control signal flat, not every such curve was filed as active; the % refers to the signal ratio;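 further: cells stimulated with 2 nM dexamethasone as agonist; on the % scale 0 is the no-effect control and ±100 the full control effect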); settings: HeLa MMTV-bla, GRE beta-lactamase ratio, antagonist mode, 18 h; at 76.8 µM (top of the series)
[8] = biological target: Peroxisome proliferator-activated receptor gamma (Homo sapiens) (UniProt P37231); experiment: qHTS assay for small molecule agonists of peroxisome proliferator-activated receptor gamma signaling (AID 588536; active means well fitted curve in the direction sought with a large enough effect in the signal ratio, with a control signal flat, not every such curve was filed as active; the % refers to the signal ratio;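 further: 0% = DMSO basal wells and 100% = rosiglitazone at 2 µM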); settings: HEK293 PPARg-UAS-bla, beta-lactamase ratio, 16 h, percent of rosiglitazone response, DMSO as zero; at 76.7 µM (top of the series)
Outline: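 HEK293 UAS-bla reporter line, 1% charcoal/dextran FBS; titration, 16 h, 37 C; CCF4 loading 2 h RT; fluorescence 460/530 nm. Normalized to rosiglitazone 2 uM = 100%, DMSO = 0%.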

[9] = biological target: Peroxisome proliferator-activated receptor gamma (Homo sapiens) (UniProt P37231); experiment: qHTS assay for small molecule antagonists of peroxisome proliferator-activated receptor gamma signaling (AID 588537; active means well fitted inhibition curve with a large enough effect in the signal ratio, with a control signal flat, not every such curve was filed as active; the % refers to the signal ratio;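 further: reporter cells co-stimulated with 50 nM rosiglitazone agonist during compound treatment; % of control where 0% means no effect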)
Outline: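 Antagonist mode, beta-lactamase reporter in HEK293; charcoal/dextran FBS 1%; 3000 cells/well, 37 C 6-6.5 h; cpd titration + rosiglitazone 50 nM final, 16 h 37 C; CCF4, 2 h RT; 460/530 nm; Hill fit → IC50, efficacy.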

[10] = biological target: Vitamin D3 receptor (Homo sapiens) (UniProt P11473); experiment: qHTS assay for small molecule antagonists of vitamin D receptor signaling (AID 588541); settings: HEK293T VDR-UAS-bla, beta-lactamase ratio, antagonist mode; at 76.7 µM (top of the series);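 further: receptor activated by calcitriol during compound treatment; on the % scale 0 is the no-effect control and ±100 the full control effect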
Outline: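 Antagonist-mode beta-lactamase reporter assay: HEK293T VDR-UAS-bla cells were exposed to titrated compound alongside 1-alpha,25-dihydroxyvitamin D3 at 3 nM final for 16 h. Values were normalized to the 50 nM agonist control and DMSO basal, with IC50 and efficacy from Hill equation fits.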

[11] = biological target: Vitamin D3 receptor (Homo sapiens) (UniProt P11473); experiment: qHTS assay for small molecule agonists of vitamin D receptor signaling (AID 588543); settings: HEK293T VDR-UAS-bla, beta-lactamase ratio, 16 h; at 76.8 µM (top of the series);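 further: 0% = DMSO basal and 100% = reference agonist control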
Outline: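 VDR-UAS-bla HEK293T cells, 2000/well, 2% charcoal-stripped FBS; compound titration 16 h at 37 C; CCF4 beta-lactamase ratio read. Normalized to 50 nM 1-alpha,25-dihydroxyvitamin D3 (100%) and DMSO; Hill fit gives EC50, efficacy.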

[12] = biological target: Retinoic acid receptor RXR-alpha (Homo sapiens) (UniProt P19793); experiment: qHTS assay for small molecule agonists of retinoid X receptor alpha signaling (AID 588544); settings: HEK293T RXRa-UAS-bla, beta-lactamase reporter, 18 h; at 76.7 µM (top of the series);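 further: 0% = DMSO basal wells and 100% = reference agonist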
[13] = biological target: Thyroid hormone receptor beta (Homo sapiens) (UniProt P10828); experiment: qHTS assay for small molecule agonists of thyroid hormone receptor beta signaling (AID 588545); settings: TR-UAS-bla GripTite HEK 293, beta-lactamase ratio, agonist mode, 18 h, percent of T3 response, DMSO as zero; at 76.7 µM (top of the series);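 further: 0% = DMSO only and 100% = 10 nM T3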
Outline: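 TR-UAS-bla GripTite HEK 293 cells (2500/well, medium with 2% charcoal/dextran FBS) were treated in agonist mode for 18 h at 37 C, titrated. Beta-lactamase was read by CCF4 ratio after 2 h; normalized to 10 nM T3 (100%) and DMSO, Hill-fitted for EC50 and efficacy.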

[14] = biological target: Thyroid hormone receptor beta (Homo sapiens) (UniProt P10828); experiment: qHTS assay for small molecule antagonists of thyroid hormone receptor beta signaling (AID 588547; active means well fitted inhibition curve with a large enough effect in the signal ratio, with a control signal flat, not every such curve was filed as active; the % refers to the signal ratio); settings: TR-UAS-bla HEK293, beta-lactamase ratio, antagonist mode, 18 h; active compounds read low
Outline: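 Inhibition of T3-driven (0.4nM final) beta-lactamase reporter activity was measured over 0.59 nM to 92 uM compound after 18 h at 37 C. The cells were GripTite HEK293 TR-UAS-bla in charcoal/dextran-stripped serum, with CCF4 ratio read-out and IC50 from Hill fits.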

[15] = biological target: Estrogen receptor (Homo sapiens) (UniProt P03372); experiment: qHTS assay for small molecule antagonists of estrogen receptor alpha signaling (AID 588513; active means well fitted curve in the direction sought with a large enough effect in the signal ratio, with a control signal flat, not every such curve was filed as active; the % refers to the signal ratio; further: on the % scale 0 is the no-effect control and ±100 the full control effect); settings: ER-alpha-UAS-bla HEK293, beta-lactamase ratio, antagonist mode; at 76.9 µM (top of the series)
[16] = biological target: Estrogen receptor (Homo sapiens) (UniProt P03372); experiment: qHTS assay for small molecule agonists of estrogen receptor alpha signaling (AID 588514); settings: ER-alpha-UAS-bla HEK293, beta-lactamase ratio, 18 h, percent of full estradiol response, vehicle zero; at 76.8 µM (top of the series);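 further: 0% = vehicle only and 100% = reference agonist; nearly all actives have a fitted effect of over 70% in size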
[17] = biological target: Androgen receptor (Homo sapiens) (UniProt P10275); experiment: qHTS assay for small molecule agonists of androgen receptor signaling (AID 588515; active means well fitted curve in the direction sought with a large enough effect in the signal ratio, with a control signal flat; the % refers to the signal ratio; further: on the % scale 0 is the no-effect control and ±100 the full control effect); settings: AR-UAS-bla HEK293, beta-lactamase ratio, agonist 16 h; active compounds read high
[18] = biological target: Androgen receptor (Homo sapiens) (UniProt P10275); experiment: qHTS assay for small molecule antagonists of androgen receptor signaling (AID 588516; active means well fitted curve in the direction sought with a large enough effect in the signal ratio, with a control signal flat, not every such curve was filed as active; the % refers to the signal ratio; further: on the % scale 0 is the no-effect control and ±100 the full control effect); settings: AR-UAS-bla HEK293, beta-lactamase ratio, antagonist mode, 16 h; at 76.8 µM (top of the series)
[19] = biological target: Peroxisome proliferator-activated receptor delta (Homo sapiens) (UniProt Q03181); experiment: qHTS assay for small molecule agonists of peroxisome proliferator-activated receptor delta signaling (AID 588534); settings: HEK293T PPARdelta-UAS-bla, beta-lactamase ratio, 18 h; at 76.7 µM (top of the series);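 further: 0% = DMSO basal wells and 100% = positive control agonist at 10 µM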
[20] = biological target: Peroxisome proliferator-activated receptor delta (Homo sapiens) (UniProt Q03181); experiment: qHTS assay for small molecule antagonists of peroxisome proliferator-activated receptor delta signaling (AID 588535; active means well fitted inhibition curve with a large enough effect in the signal ratio, with a control signal flat, not every such curve was filed as active; the % refers to the signal ratio); settings: HEK293T PPARd-UAS-bla, beta-lactamase FRET ratio, 18 h; at 76.7 µM (top of the series)

N#[O+].[C-]#N.[C-]#N.[C-]#N.[C-]#N.[C-]#N.[Fe+2].[Na+].[Na+]
inactive: activity change, negative = cytotoxicity [1] -16.1% | activity change, negative = inhibition [2] -4.18% | activity change, negative = inhibition ([3]; at 46.1 µM (top of the series)) 2.98%

CCOP(=O)(CC)OCC
inactive: activity change, negative = inhibition [4] -11% | activation [5] -3.32% | activation [6] -2.11% | activity change, negative = inhibition [7] 1.36% | activation [8] -0.489% | Potency [9] | activity change, negative = inhibition [10] -4% | activation [11] -0.781% | activation [12] 9.21% | activation [13] -13.5% | inhibition [14] 4.05% | activity change, negative = inhibition ([3]; at 92.2 µM (top of the series)) 0.215%

CCC(C)(OO)OOC(C)(CC)OO (stereo unspecified)
inactive: activity, negative = inhibition [15] 4.24% and -1.14% | activation [16] -0.562% and -3.66% | activation [17] 10.8% and -3.78% | activity change, negative = inhibition [18] -6.35% and -7.28% | activity change, negative = inhibition [4] -0.863% and 12.1% | activation [5] -0.0852% and -1.48% | activation [6] 2.13% and -3.92% | activity change, negative = inhibition [7] -4.72% | activation [19] 12.2% and 3.01% | activity change, negative = inhibition [20] -0.853% | activation [8] 2.06% and -5.47% | Potency [9] | activity change, negative = inhibition [10] 7.54% and 4.03% | activation [11] 1.85% and 4.95% | activation [12] 1.72% and 1.55% | activation [13] 6.87% and -0.407% | inhibition [14] 6.52% and -4.48% | activity change, negative = inhibition ([3]; at 92.2 µM (top of the series)) -1.07%

OCCSCCO
inactive: activity change, negative = inhibition ([3]; at 46.1 µM (top of the series)) 7.63%

O=[N+]([O-])[O-].[NH4+]
inactive: activation [6] 1.35% | activity change, negative = inhibition [7] 0.385% | activation [8] 3.73% | Potency [9] | activation [12] 7.33%

Cc1c([N+](=O)[O-])cccc1[N+](=O)[O-]
inactive: activity change, negative = inhibition [4] -7.75% and -1.57% | activation [5] -0.419% and -0.602% | activation [6] 1.62% and -12.5% | activity change, negative = inhibition [7] 15.1% and -4.85% | activation [19] 6.71% and -6.19% | activation [8] -0.601% and -5.26% | Potency [9] | activity change, negative = inhibition [10] -0.306% and 11.6% | activation [11] 1.03% and 2.84% | activation [12] -2.35% and 8.88% | activation [13] -3.4% and -4.7% | inhibition [14] 12.6% and 19.8% | activity change, negative = inhibition ([3]; at 92.2 µM (top of the series)) 3.07%

[NH4+].[O-][Cl+3]([O-])([O-])[O-]
inactive: activation [8] 2.27% | activation [12] 0.445% | activity change, negative = inhibition ([3]; at 92.2 µM (top of the series)) -18.9%

CN(C)CCS
inactive: activity change, negative = inhibition ([3]; at 46.1 µM (top of the series)) 10.1%
